Earlier results on one substance are cited in article PMC8967716, “Inhibition of calcium-triggered secretion by hydrocarbon-stapled peptides” (Nature, 2022).

Protein sequences, listed by entry. Tags and fused reporters are not part of them.
UniProt P32851, whole entry, chain 1 of 3: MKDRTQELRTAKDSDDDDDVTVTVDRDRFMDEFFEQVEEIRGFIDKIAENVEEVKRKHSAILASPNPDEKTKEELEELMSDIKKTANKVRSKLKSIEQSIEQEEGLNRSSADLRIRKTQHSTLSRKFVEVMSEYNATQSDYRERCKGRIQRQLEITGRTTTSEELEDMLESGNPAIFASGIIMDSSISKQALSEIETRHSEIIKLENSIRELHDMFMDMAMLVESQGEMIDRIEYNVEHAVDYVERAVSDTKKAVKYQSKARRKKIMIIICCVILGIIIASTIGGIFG
UniProt P21707, whole entry: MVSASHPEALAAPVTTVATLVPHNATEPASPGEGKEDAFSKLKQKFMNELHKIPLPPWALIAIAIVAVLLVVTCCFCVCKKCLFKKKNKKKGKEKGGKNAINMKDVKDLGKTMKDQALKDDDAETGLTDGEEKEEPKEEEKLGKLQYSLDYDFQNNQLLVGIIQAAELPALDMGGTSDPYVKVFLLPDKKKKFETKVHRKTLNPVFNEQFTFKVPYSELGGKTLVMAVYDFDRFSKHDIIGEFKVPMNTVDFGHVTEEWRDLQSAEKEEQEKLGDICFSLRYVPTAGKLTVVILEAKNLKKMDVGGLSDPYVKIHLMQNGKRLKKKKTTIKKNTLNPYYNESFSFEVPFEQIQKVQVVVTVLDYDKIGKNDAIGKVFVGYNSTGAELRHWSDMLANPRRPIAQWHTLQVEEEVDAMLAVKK

For this data set, the target named is SNARE complex (Rattus norvegicus) (UniProt P32851). The settings on record: cited from earlier work.

One may read the Kd as the constant that tells how readily two partners part at equilibrium. As to Syt1 (from UniProt P21707), the Kd is 20 µM.
